The test system of the assay is INS1. Description: Cytoprotective activity in rat INS-1 cells assessed as protection against tunicamycin-induced ER stress-mediated reduction in cell viability after 3 days by CellTiter-Glo assay. It is filed as functional, cell-based. (In general: Cellular ATP, detected with luciferase, serves as a proxy for viable cell number.)

Among the data in ChEMBL document CHEMBL4038317, “Discovery of a Benzamide Derivative That Protects Pancreatic β-Cells against Endoplasmic Reticulum Stress” (J Med Chem, 2017) are Activity values, retold here.

Molecules are shown by their SMILES.

Take `O=C(NCc1ccc(C(F)(F)F)cc1)c1cccc(CN2CCCCC2)c1`: the Activity entry is “Dose-dependent effect”.
